The chains behind the UniProt entries cited, without tags or fusion partners. Residues count along the entry.
UniProt Q63380, 1-617: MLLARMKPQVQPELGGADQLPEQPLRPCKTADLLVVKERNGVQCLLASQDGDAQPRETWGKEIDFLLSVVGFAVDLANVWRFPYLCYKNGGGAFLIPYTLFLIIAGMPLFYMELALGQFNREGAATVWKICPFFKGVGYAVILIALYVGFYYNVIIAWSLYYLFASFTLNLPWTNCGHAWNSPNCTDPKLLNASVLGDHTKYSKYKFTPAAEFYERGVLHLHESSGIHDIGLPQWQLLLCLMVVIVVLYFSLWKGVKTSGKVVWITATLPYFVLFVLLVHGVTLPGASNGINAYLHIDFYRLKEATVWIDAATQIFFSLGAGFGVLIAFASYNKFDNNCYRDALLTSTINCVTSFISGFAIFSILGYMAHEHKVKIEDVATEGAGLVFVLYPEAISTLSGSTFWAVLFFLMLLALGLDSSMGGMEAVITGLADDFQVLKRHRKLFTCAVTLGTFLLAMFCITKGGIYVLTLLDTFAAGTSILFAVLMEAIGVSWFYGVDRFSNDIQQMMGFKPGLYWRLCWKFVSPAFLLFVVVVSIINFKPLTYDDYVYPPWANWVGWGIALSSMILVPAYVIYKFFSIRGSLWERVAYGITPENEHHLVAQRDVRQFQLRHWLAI
UniProt P31652, whole entry: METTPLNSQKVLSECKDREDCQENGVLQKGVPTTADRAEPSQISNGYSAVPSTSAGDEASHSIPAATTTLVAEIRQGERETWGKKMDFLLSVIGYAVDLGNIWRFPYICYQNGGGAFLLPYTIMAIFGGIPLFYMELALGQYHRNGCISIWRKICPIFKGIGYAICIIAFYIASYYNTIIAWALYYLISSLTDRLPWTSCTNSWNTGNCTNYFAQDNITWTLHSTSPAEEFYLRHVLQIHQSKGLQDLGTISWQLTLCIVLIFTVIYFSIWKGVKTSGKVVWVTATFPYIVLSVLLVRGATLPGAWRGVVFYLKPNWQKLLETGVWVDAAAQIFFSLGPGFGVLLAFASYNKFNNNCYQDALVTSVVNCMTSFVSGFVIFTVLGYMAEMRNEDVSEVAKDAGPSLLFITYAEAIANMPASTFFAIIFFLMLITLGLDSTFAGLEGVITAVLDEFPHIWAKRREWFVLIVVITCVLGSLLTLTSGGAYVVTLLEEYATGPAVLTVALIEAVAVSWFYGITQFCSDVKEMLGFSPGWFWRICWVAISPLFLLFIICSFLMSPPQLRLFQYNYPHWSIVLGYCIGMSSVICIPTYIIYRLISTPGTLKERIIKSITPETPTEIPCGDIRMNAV

In US10087148B2, “Quinazolines as biogenic amine transport modulators” (THE UNITED STATES OF AMERICA AS REPRESENTED BY THE …, priority 2014, dated 2018):

Key:
[1] = target: norepinephrine transporter (NET) (Rattus norvegicus, UniProt Q63380); test: [3H]norepinephrine (NE) uptake inhibition in rat brain synaptosomes; assay type: biochemical; conditions: mean ± S.D.; n = 3
Method: Uptake inhibition assay for the norepinephrine transporter was conducted in rat brain synaptosomes as described elsewhere with minor modifications (Rothman et al., Synapse 39, 32-41 (2001)). Freshly removed whole brain minus cerebellum and caudate was homogenized in 10% ice-cold sucrose with 12 strokes of a hand-held Potter-Elvehjem homogenizer followed by centrifugation at 1000×g for 10 minutes. The supernatants were saved on ice and used immediately. Transporter activity at NET was assessed using 10 nM [^3H]norepinephrine. The assay buffer was Krebs-phosphate buffer containing 154.4 mM NaCl, 2.9 mM KCl, 1.1 mM CaCl2, 0.83 mM MgCl2, 5 mM glucose, 1 mg/mL ascorbic acid, and 50 μM pargyline. […] Uptake inhibition assays were conducted at 37° C. and were initiated by adding 100 μL of tissue to 900 μL assay buffer containing test drug and [^3H]norepinephrine. Test drugs were diluted in assay buffer containing 1 mg/mL bovine serum albumin. Nonspecific uptake was measured by incubating in the presence of 10 μM indatraline. […] Filters were rinsed with 6 mL wash buffer and retained tritium was quantified by a MicroBeta liquid scintillation counter (PerkinElmer) after overnight extraction in 0.6 mL of liquid scintillation cocktail (Cytoscint, ICN). […]

[2] = target: serotonin transporter (SERT) (Rattus norvegicus (Rat), UniProt P31652); test: [3H]serotonin (5-HT) uptake inhibition in rat brain synaptosomes; assay type: biochemical; conditions: mean ± S.D.; n = 3
Method: Uptake inhibition assay for the serotonin transporter was conducted in rat brain synaptosomes as described elsewhere with minor modifications (Rothman et al., Synapse 39, 32-41 (2001)). Freshly removed whole brain minus cerebellum and caudate was homogenized in 10% ice-cold sucrose with 12 strokes of a hand-held Potter-Elvehjem homogenizer followed by centrifugation at 1000×g for 10 min. The supernatants were saved on ice and used immediately. Transporter activity at SERT was assessed using 5 nM [^3H]serotonin. The assay buffer was Krebs-phosphate buffer containing 154.4 mM NaCl, 2.9 mM KCl, 1.1 mM CaCl2, 0.83 mM MgCl2, 5 mM glucose, 1 mg/mL ascorbic acid, and 50 μM pargyline. […] Uptake inhibition assays were conducted at 25° C. and were initiated by adding 100 μL of tissue to 900 μL assay buffer containing test drug and [^3H]serotonin. Test drugs were diluted in assay buffer containing 1 mg/mL bovine serum albumin. Nonspecific uptake was measured by incubating in the presence of 10 μM indatraline. […] Filters were rinsed with 6 mL wash buffer and retained tritium was quantified by a MicroBeta liquid scintillation counter (PerkinElmer) after overnight extraction in 0.6 mL of liquid scintillation cocktail (Cytoscint, ICN). […]

**Q.** For `COC(=O)[C@H]1[C@@H](OC(=O)c2ccccc2)C[C@@H]2CC[C@H]1N2C` [Cocaine, reference compound], which IC50 [1] is on record?
**A.** Its IC50 is 329 ± 22 nM.

**Q.** What about the IC50 [2] of the same compound?
**A.** Its IC50 is 273 ± 24 nM.
